Paper PMC9411691, “Protein-Ligand Identification and In Vitro Inhibitory Effects of Cathine on 11 Major Human Drug Metabolizing Cytochrome P450s” (International Journal of Toxicology, 2022)
Counter-ions that a name gives are not always drawn.

Amino acid sequences for entries named in this document (tags omitted).
UniProt P10635, whole entry: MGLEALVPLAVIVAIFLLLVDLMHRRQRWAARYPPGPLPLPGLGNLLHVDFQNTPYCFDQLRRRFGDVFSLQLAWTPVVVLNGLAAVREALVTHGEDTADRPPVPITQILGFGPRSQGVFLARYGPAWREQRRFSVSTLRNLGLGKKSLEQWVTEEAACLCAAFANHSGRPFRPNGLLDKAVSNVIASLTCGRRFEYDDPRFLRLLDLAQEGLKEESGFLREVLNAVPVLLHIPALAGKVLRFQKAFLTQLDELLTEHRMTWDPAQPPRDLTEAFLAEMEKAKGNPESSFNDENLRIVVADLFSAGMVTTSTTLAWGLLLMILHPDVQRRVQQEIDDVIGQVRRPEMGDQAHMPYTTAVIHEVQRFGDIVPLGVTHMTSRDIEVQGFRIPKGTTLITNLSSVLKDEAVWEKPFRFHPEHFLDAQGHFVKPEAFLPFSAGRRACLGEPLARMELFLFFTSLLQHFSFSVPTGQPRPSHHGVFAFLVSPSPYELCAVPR

Tests used:
CYP1A2 = target: T1, CYP1A2 (Homo sapiens, UniProt P05177); assay: Vivid CYP450 fluorescence-based inhibition assay, CYP1A2; conditions: pH 8, probe Vivid EOMCC (ethoxymethyloxy-3-cyanocoumarin)
T1 sequence (P05177 2-516 limits assumed): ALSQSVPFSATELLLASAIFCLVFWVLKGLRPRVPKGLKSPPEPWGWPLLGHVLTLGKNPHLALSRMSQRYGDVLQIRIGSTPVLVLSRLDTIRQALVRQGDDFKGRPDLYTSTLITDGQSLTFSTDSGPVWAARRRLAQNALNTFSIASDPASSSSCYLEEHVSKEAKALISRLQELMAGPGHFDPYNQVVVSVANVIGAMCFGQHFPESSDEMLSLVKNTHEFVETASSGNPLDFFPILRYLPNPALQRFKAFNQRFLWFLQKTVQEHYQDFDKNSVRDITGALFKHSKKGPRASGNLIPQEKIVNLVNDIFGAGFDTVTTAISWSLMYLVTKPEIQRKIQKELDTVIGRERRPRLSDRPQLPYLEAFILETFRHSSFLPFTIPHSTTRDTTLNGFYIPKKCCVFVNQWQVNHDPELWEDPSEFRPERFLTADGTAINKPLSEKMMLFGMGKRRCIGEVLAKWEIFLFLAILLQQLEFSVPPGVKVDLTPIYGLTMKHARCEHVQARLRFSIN

CYP2D6 = CYP2D6 (Homo sapiens, UniProt P10635); assay: Vivid CYP450 fluorescence-based inhibition assay, CYP2D6; conditions: pH 8, probe Vivid EOMCC (ethoxymethyloxy-3-cyanocoumarin)

`C[C@H](N)[C@@H](O)c1ccccc1` [Cathine, (1 S, 2 S)-2-amino-1-phenylpropan-1-ol.hydrochloride] gave an IC50 shift at 60 min (CYP1A2) of 1.12 and an IC50 shift at 60 min (CYP2D6) of 0.51.
